# Source: PMC5768801, “The PII signaling protein from red algae represents an evolutionary link between cyanobacterial and Chloroplastida PII proteins” (Scientific Reports, 2018)
# Sequences of proteins named here, by UniProt entry; tags and fusion partners are left off. A change or cut given only in a name is not applied to a line headed by its entry.
# UniProt P51254: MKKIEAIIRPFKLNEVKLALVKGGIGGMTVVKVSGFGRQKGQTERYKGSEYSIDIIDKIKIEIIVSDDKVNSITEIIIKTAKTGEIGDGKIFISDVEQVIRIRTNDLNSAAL
# Assays:
# PpPII = PpPII (Porphyra purpurea, UniProt P51254); experiment: ITC binding of small effector molecules to red algal PpPII
# Method: To gain additional insights into the ligand binding properties of PpPII in comparison to cyanobacterial and chloroplastid PII proteins, isothermal titration calorimetry (ITC) experiments were performed using highly purified Strep-tagged or His-tagged recombinant PpPII, SyPII, CrPII, and PhyscoPII proteins (Supplementary Fig. S1) with different protein/ligand/ concentrations to determine the best fitting conditions of the binding model. The titration experiments were repeated with different protein preparations to confirm the reproducibility of the results. The raw isothermal data were fitted into one-binding site as well as three-sequential binding sites to define the best fitting model. Fitting using a one binding site model states an average Kd value for all available binding sites and the mean of the stoichiometry of bound ligands.
# The ITC experiments were done using a VP-ITC microcalorimeter (MicroCal, LCC). All details for determination of binding constants for small effector molecules using ITC are fully described in the supplementary information. Heat isotherms of the dilution of the ligand in the cell buffer were collected in a blank run for each experiment in the absence of protein. The binding isotherms were calculated from received data and fitted to one-site and three-sequential binding sites models using the MicroCal ORIGIN software (Northampton) as described. All titrations were performed in duplicates with different purification batches of recombinant PII proteins. The association binding constant (Ka) was generated from the software by de-convolution and curve fitting. For calculation of dissociation constant (Kd), the Ka value was inversed.
# Supplementary Information […]
# Determination of Binding Constants for Small Effector Molecules using Isothermal […]
# The binding of the small effector molecules to the recombinant PII proteins was tested using isothermal titration calarmity (ITC); VP-ITC microcalorimeter (MicroCal). All titrations were performed on 20°C using […] injection syringe with injection 6 µl or 10 µl of the tested ligands for 45 or 29 times, respectively into the cell (1.4 ml) with continuous stirring at 155 rpm. All tested ligands were high grade, prepared freshly in the same buffer of the protein and purchased from Sigma-Aldrich. Heat isotherms for the dilution of the ligand in the cell buffer were collected in a blank run in the absence of protein. The received calorimetric data were analyzed using MicroCal Origin software and fitted into one-site and three-sequential binding sites models, as indicated by the manufacture for calculation of binding isotherms9. For data reproducibility, the titrations were performed in duplicates with different purification batches of recombinant PII proteins. The association binding constant (Ka) was generated from the software by de-convolution and curve fitting. For calculation of dissociation constant (Kd), the Ka value was inversed.
# For determination the binding isotherms of red algal PpPII protein, a buffer system composed of […]
# used. For determination ATP and ADP binding isotherms upon the binding to PpPII protein, His- […]
# against 2 mM ATP or 2 mM ADP. For determination of ATP and ADP binding isotherms in […]
# concentration) was titrated against 0.5 mM of ATP or 1 mM ADP, respectively. However, for […]
# of 1 mM of ATP or 1 mM ADP. […]
# PpPII-ScNAGK complex = PpPII-ScNAGK complex (Porphyra purpurea, UniProt P51254); experiment: Coupled NAGK activity assay, ScNAGK with PpPII; assay type: biochemical, Synechocystis sp. PCC 6803; Porphyra purpurea
structure (smiles),measurement,setting,value
"O=C(O)CCC(=O)C(=O)O [2-OG, 2-oxoglutarate]",Kd,"PpPII; Average Kd (one-site binding model), in presence ATP (1 mM)",4 ± 2.4 µM
same,Kd,"PpPII; Kd1 (three-sites binding model), in presence ATP (1 mM)",2.7 ± 1.4 µM
same,Kd,"PpPII; Kd3 (three-sites binding model), in presence ATP (1 mM)",80 ± 22 µM
same,Average Kd (one-site binding model),PpPII; in presence ADP (1 mM),No binding
same,Kd1 (three-sites binding model),PpPII; in presence ADP (1 mM),No binding
same,Kd2 (three-sites binding model),PpPII; in presence ADP (1 mM),No binding
same,Kd3 (three-sites binding model),PpPII; in presence ADP (1 mM),No binding
same,Kd,"PpPII; read-out: Kd2 (three-sites binding model), in presence ATP (1 mM)",50.7 ± 16.1 µM
same,IC50,PpPII-ScNAGK complex,220 ± 10 µM

# Read-outs that look alike come from different tables or passages of the source.
